Literature values, collected in US20060229299A1, “5ht2c Receptor antagonists in the treatment of schizophrenia” (priority 2003, published 2006).
Counter-ions that a name gives are not always drawn. Like-named read-outs stand apart in the source and are kept apart here.

Chains of the proteins cited; added tags and fusions are not shown.
UniProt P28223, whole entry: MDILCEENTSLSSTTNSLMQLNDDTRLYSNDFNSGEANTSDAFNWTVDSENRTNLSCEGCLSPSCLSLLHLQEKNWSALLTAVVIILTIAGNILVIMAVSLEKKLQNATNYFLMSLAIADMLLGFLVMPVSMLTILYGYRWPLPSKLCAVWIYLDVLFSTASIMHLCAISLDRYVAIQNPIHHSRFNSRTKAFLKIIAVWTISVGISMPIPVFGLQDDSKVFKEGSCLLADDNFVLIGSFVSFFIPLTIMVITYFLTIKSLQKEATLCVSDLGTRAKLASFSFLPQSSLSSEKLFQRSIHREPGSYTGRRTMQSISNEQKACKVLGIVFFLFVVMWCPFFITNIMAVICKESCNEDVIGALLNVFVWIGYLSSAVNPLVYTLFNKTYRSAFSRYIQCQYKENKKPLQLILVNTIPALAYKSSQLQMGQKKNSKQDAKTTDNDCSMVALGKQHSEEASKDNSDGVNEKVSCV
UniProt P21917, whole entry: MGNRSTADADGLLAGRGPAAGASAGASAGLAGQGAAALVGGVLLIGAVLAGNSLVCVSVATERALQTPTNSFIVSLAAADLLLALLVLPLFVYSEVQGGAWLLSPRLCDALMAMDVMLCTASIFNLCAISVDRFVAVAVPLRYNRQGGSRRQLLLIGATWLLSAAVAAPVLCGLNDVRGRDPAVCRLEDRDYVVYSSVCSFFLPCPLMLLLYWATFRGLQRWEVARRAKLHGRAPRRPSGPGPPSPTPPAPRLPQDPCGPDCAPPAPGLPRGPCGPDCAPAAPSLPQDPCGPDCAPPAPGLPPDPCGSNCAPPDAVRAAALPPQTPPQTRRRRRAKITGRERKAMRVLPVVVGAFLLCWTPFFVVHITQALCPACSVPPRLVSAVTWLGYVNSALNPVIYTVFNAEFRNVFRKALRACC
UniProt P35367, whole entry: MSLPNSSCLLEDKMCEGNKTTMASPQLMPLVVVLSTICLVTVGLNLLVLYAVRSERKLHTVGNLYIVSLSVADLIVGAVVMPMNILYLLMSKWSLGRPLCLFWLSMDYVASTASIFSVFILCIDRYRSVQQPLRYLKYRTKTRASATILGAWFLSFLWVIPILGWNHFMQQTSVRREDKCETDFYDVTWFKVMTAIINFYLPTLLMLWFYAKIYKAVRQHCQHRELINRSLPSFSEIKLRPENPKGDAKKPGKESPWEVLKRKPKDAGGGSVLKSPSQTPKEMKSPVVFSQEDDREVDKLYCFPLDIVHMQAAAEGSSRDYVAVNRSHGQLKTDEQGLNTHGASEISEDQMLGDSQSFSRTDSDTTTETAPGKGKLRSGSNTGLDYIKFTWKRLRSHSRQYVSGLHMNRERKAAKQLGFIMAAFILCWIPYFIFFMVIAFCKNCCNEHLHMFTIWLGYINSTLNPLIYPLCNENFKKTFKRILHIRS

Tests used:
5-HT2A receptor = 5-HT2A receptor (Homo sapiens, UniProt P28223); details: Table 3; expressed as pKi or pKd values; known affinities; cited from earlier work
D4 dopamine receptor = D4 dopamine receptor (Homo sapiens, UniProt P21917); details: cited from earlier work
H1 histamine receptor = H1 histamine receptor (Homo sapiens, UniProt P35367); details: expressed as KD; cited from earlier work

SMILES	5-HT2A Affinity (5-HT2A receptor)	D4 affinity value (−logKi) (D4 dopamine receptor; human)	further results
CO[C@H]1CC[C@H](OC(=O)[C@@H]2C[C@@H]3c4cccc5c4c(cn5C(C)C)C[C@H]3N(C)C2)CC1 (relative stereo) [Sergolexole, [trans(8β)]6-methyl-1-[1-methylethyl]ergoline-8-carboxylic acid, 4-methoxycyclohexyl ester (maleate salt)]	7.2		
CCN1CCCC1CNC(=O)c1cc(S(N)(=O)=O)ccc1OC (stereo not drawn) [Sulpiride]		7.3^12	
CC(C)n1cc2c3c(cccc31)[C@H]1C[C@@H](C(=O)NC3CCCCC3)CN(C)[C@@H]1C2 [Amesergide, N-cyclohexyl-1-isopropyl-6-methyl-ergoline-8-carboxamide]	7.8		
CN1CCN(CC/C=C2/c3ccccc3Sc3ccc(S(=O)(=O)N(C)C)cc32)CC1 [Thiothixene]			H1 affinity value (−log KD) (H1 histamine receptor): 8.2^16
O=C1Cc2cc(CCN3CCN(c4nsc5ccccc45)CC3)c(Cl)cc2N1 [Ziprasidone]		7.4^6	D4 affinity value (−logKi) (D4 dopamine receptor): 7.5^14
